{"sequences": {"note": "Sequences of proteins named here, by UniProt entry; tags and fusion partners are left off. Residues count along the entry.", "UniProt P03452, 18-342 limits assumed": "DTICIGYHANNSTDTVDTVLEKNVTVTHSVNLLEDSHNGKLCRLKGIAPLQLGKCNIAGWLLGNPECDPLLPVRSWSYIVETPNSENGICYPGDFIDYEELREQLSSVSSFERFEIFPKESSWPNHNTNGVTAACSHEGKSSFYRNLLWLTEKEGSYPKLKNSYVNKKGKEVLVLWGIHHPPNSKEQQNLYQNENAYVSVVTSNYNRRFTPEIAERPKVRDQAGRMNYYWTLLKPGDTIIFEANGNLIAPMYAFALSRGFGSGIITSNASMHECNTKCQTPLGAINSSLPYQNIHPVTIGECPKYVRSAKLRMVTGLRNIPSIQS", "UniProt P03452, 344-565 limits assumed": "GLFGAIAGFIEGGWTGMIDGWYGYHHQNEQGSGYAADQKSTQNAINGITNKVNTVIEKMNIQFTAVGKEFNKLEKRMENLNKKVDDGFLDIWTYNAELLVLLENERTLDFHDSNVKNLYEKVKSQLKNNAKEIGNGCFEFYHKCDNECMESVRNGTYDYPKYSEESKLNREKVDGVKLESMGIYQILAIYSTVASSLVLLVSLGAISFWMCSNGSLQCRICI"}, "source": "paper PMC10088587", "about": "(Archives of Microbiology, 2023)", "biological_target": "virus surface HA glycoprotein (Influenza A virus, UniProt P03452)", "assay": "Hemagglutination inhibition assay", "assay_type": "biochemical", "conditions": "twofold dilutions from CC50, 4 HA unit of virus, 1% cRBC", "note": "Counter-ions that a name gives are not always drawn."}
{"compound": "NC12CC3CC(CC(C3)C1)C2", "note": "[Ama, amantadine hydrochloride, reference compound]", "values": [{"measurement": "Dilution to give HI +", "value": 2, "unit": "nd"}]}
